How the values were obtained:
[1] = from references (footnote e); cited from earlier work
solubility = type: physicochemical; conditions: Table 3, not marked MeOD
Protocol: TPP in benzene or chloroform with OD 0.5-0.7 was used as blank/solvent solution to produce singlet oxygen. The intensity of ^1O2 luminescence signals was measured at 532 nm excitation in air-saturated solutions with a liquid nitrogen cooled germanium photodiode at 1268 nm. 0.02-0.5 mL quencher stock solution of Ir(III) complexes in […] was added to the blank solution. The decay trace of singlet oxygen was then re-measured, and the additions repeated 6-10 times. Singlet oxygen quenching rate constants by the Ir(III) complexes were obtained from the slopes of Stern Volmer plots (See FIG. 7).

solubility remark (solubility): Not soluble
Substance: iridium(III) bis(2-phenylbenzothiazolato-N, C^2)pyridyl chloride [BT-py]
ΦPE quantum efficiency for emission in solution [1]: 0.2
